The values that follow come from ChEMBL document CHEMBL5365420, “Kinetics, Thermodynamics, and Structural Effects of Quinoline-2-Carboxylates, Zinc-Binding Inhibitors of New Delhi Metallo-β-lactamase-1 Re-sensitizing Multidrug-Resistant Bacteria for Carbapenems” (J Med Chem, 2023).

Protein sequences, listed by entry. Tags and fused reporters are not part of them. Lines headed by an entry give the natural chain unless they say otherwise; changes in a name come on top.
UniProt C7C422: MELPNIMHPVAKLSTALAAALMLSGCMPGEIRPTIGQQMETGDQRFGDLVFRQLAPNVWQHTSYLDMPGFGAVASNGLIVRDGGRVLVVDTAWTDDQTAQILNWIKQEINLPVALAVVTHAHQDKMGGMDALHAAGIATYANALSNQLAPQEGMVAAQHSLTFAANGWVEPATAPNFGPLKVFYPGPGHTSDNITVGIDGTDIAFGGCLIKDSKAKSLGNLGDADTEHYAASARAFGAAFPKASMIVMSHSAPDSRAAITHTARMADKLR

The target of this test is Metallo-beta-lactamase type 2 (Bacteria, UniProt C7C422).

By IC50 is commonly meant the midpoint of a concentration-inhibition curve.

SMILES strings stand for the structures.

As for `Oc1c(I)cc(Cl)c2cccnc12` [CLIOQUINOL], the IC50 came out at 3 µM.

As to `Oc1ccc(Cl)c2cccnc12` [CLOXYQUIN], the IC50 was determined as 28 µM.
